Laboratory results reported in paper PMC10948889, “Differential scanning fluorimetry to assess PFAS binding to bovine serum albumin protein” (Scientific Reports, 2024).

Sequences of proteins named here, by UniProt entry; tags and fusion partners are left off. Residues count along the entry.
UniProt P02769, 25-607: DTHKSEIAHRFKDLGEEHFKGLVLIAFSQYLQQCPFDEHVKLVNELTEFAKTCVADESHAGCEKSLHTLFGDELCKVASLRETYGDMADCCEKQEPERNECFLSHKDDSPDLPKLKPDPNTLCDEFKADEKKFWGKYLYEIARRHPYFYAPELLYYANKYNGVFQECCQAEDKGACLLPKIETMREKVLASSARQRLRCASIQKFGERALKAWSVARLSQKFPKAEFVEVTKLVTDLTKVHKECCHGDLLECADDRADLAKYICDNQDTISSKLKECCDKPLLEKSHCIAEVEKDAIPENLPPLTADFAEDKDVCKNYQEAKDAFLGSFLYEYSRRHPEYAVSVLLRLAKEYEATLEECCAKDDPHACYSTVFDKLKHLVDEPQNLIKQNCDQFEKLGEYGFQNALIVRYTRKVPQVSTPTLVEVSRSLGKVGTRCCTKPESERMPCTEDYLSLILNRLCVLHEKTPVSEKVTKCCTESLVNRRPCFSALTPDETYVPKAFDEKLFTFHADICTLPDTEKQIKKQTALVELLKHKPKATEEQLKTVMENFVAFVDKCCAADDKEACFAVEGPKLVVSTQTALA

Target: T1, bovine serum albumin (BSA) (Bos taurus, UniProt P02769)
T1 construct: purchased Sigma-Aldrich (St. Louis, MO)
Test: Label-free differential scanning fluorimetry, equilibrium-based binding model near BSA melting temperature
Procedure: Bovine serum albumin (lyophilized powder, 99% fatty acid free) was obtained from Sigma-Aldrich (St. Louis, MO). A BSA concentration of 10 μM in pH 7.4 phosphate buffered saline (PBS) was used in each experiment. The solution of BSA was kept at 4 °C prior to use.
Experiments were conducted using a Tycho NT.6 differential scanning fluorimeter (NanoTemper, Munich, Germany). […] Solutions were prepared a day in advance of the experiment and stored at 4 °C. Immediately prior to analysis, each sample was loaded into a 1 mm diameter glass capillary and placed in the instrument. […] Fluorescence intensity was measured at 0.1 °C intervals at emission wavelengths of 330 and 350 nm. The ratio of the intensity at these wavelengths, I350/I330, was used to account for blue shifts in the emission peak wavelengths with increasing temperature. The minimum value of the first derivative of the I350/I330 curve with respect to temperature, denoting the midpoint of the melting transition where the fraction of folded to unfolded protein is 1, was taken as the melting temperature Tm. Each experiment was performed in triplicate.
As described by Eftink and Ghiron[44], baseline subtraction of the raw fluorescence intensity data collected at 350 nm was performed at both high and low temperatures. The plots were then normalized by dividing by the maximum intensity value. […]

SMILES | Kd [µM]
O=C(O)C(F)(F)C(F)(F)C(F)(F)C(F)(F)C(F)(F)C(F)(F)C(F)(F)C(F)(F)F [PFNA, Perfluorononanoic acid] | 1.04
O=S(=O)(O)C(F)(F)C(F)(F)C(F)(F)C(F)(F)C(F)(F)C(F)(F)C(F)(F)C(F)(F)F [PFOS, Sodium perfluorooctanesulfonate] | 36.6
